Patent publication US11992488B2, “Vasoconstriction compositions and methods of use” (Eye Therapies, LLC, priority 2008, dated 2024)

Key:
over-responders = conditions: contact lenses soaked in 0.008% brimonidine, of 100 Subjects (over-responders)
[1] = tested on: patient with an ocular condition; conditions: brimonidine at 0.033%, left eye only, 4 hrs after FIG. 4D
[2] = tested on: over-responders wearing contact lenses; conditions: 0.008% brimonidine while wearing contact lenses, of 100 Subjects (over-responders)
[3] = tested on: patient with nasal congestion; conditions: 0.03% Brimonidine nasal spray, repeated for one week, n of 1
under-responders = conditions: of 100 Subjects (under-responders)
[4] = tested on: patients having a red eye condition; experiment: Example 4: red eye study, cumulative red scores; conditions: brimonidine at 0.05% (1 of 15)
[5] = tested on: Lasik patients (Intralase femtosecond laser); experiment: Example 2: Lasik prophylaxis (postoperative hyperemia, hemorrhage, flap dislocation)
[6] = 0.037% brimonidine after wash-out
[7] = Brimonidine 0.02%, Treatment Group 3

`Brc1c(N=C2NCCN2)ccc2nccnc12.O=C(O)C(O)C(O)C(=O)O` [brimonidine, 5-bromo-6-(2-imidazolidinylideneamino) quinoxaline L-tartrate] was tested, and the Other side effects (over-responders) was 1, the “Side Effects: Eye ache/strain” value (over-responders) was 1 and the “Side Effects: Eye dryness” value (over-responders) was 1. For the same molecule, the “Side Effects: Eye irritation” value (over-responders) was 1, the “Side Effects: Rebound” value (over-responders) was 0 and the “rebound hyperemia after third application” value [1] was “without rebound hyperemia”. The Other side effects [2] was 1, the “Side Effects: Eye ache/strain” value [2] was 1 and the “Side Effects: Eye dryness” value [2] was 1. For the same molecule, the “Side Effects: Eye irritation” value [2] was 1, the “Side Effects: Rebound” value [2] was 0 and the “rebound on repeated use” value [3] was “without rebound”. The Other side effects (under-responders; [6]) was 1, the “Side Effects: Eye ache/strain” value (under-responders; [6]) was 1 and the “Side Effects: Eye dryness” value (under-responders; [6]) was 1. For the same molecule, the “Side Effects: Eye irritation” value (under-responders; [6]) was 1, the “Side Effects: Rebound” value (under-responders; [6]) was 0 and the Other side effects (under-responders; […] brimonidine) was 00. For the same molecule, the “Side Effects: Eye ache/strain” value (under-responders; […] brimonidine) was 0, the “Side Effects: Eye dryness” value (under-responders; […] brimonidine) was 0 and the “Side Effects: Eye irritation” value (under-responders; […] brimonidine) was 0. For the same molecule, the “Side Effects: Rebound” value (under-responders; […] brimonidine) was 0, the “Rebound hyperemia after one dose” value [4] was 6.6% and the flap dislocation rate ([5]; Brimonidine 0.02% topically, 10-20 minutes preoperatively, initial trial) was “under 1%”. For the same molecule, the adverse cardiovascular events [5, 7] was “No adverse cardiovascular events occurred”, the allergic reactions [5, 7] was “No significant allergic reactions have been found” and the flap dislocation rate ([5]; Brimonidine 0.02%, group expanded to over 500 eyes, most mild striae) was “under 1%”.

Like-named read-outs stand apart in the source and are kept apart here.
